Test results as given in patent US8765820B2, “Tranylcypromine derivatives as inhibitors of histone demethylases LSD1 and/or LSD2” (Universita Degli Studi di Roma “La Sapienza”, priority 2010, dated 2014).

The chains behind the UniProt entries cited, without tags or fusion partners.
UniProt P27338, whole entry: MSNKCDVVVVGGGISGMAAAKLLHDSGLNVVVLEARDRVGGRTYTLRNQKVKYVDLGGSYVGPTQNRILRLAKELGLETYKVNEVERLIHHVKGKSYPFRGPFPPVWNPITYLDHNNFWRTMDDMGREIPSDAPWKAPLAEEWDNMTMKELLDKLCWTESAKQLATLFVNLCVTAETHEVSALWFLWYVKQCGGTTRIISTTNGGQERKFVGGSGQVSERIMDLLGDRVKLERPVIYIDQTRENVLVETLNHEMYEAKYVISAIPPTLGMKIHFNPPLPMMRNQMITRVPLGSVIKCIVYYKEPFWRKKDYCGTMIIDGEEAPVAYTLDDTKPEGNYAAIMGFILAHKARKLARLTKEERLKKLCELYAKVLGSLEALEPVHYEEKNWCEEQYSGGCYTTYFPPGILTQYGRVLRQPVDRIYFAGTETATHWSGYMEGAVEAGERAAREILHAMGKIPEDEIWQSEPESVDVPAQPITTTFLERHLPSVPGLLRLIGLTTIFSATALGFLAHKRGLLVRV

Biological target: Human recombinant MAO B (Homo sapiens (Human), UniProt P27338)
Experiment: MAO B inhibition, peroxidase-coupled assay with benzylamine as substrate
Type: biochemical
Details: 25° C., pH 7.5; no inhibition = no detectable inhibition at inhibitor saturated solutions

Compound `N[C@@H]1C[C@H]1c1ccc(NC(=O)c2ccccc2)cc1` (relative stereo) has a Ki of 3.5 µM.
